Test results taken from patent US7566805B2, “Modafinil compositions” (priority 2003, dated 2009).

Legend:
[1] = Racemic modafinil:malonic acid co-crystal pharmacokinetic study in dogs (vs micronized pure modafinil); type: in vivo
Description: As a reference, micronized modafinil with a median particle size of about 2 micrometers was also administered in the study. […] Such a higher bioavailability illustrates the modulation of an important pharmacokinetic parameter due to an embodiment of the present invention. A compilation of important pharmacokinetic parameters measured during the animal study are included in Table V.

[2] = Pharmacokinetic study with dogs: modafinil:malonic acid formulated with lactose vs PROVIGIL tablets; type: in vivo; conditions: 200 mg modafinil, Mean
Text: Severel important pharmacokinetic parameters are described in Table VI. In Table VI, “Cmax” is the maximum blood plasma concentration, “AUC (inf)” is the extrapolated area under the curve, “t1/2” is the amount of time for the blood plasma level to decrease to half of the Cmax level beginning at administration, “Tmax” is the time to maximum blood plasma concentration from administration, “CL” is the clearance rate of modafinil, and “F %” is the percent bioavailability.

Racemic Modafinil:Malonic Acid Co-crystal [Modafinil: malonic acid co-crystal]
Half-life [1]: 5.1 ± 2.4 h
t1/2 [2]: 1.63
